Like-named read-outs stand apart in the source and are kept apart here.
Columns and labels:
B-HRP = biological target: T1, B-HRP (Armoracia rusticana, UniProt P00433); experiment: Dot blot assay with B-HRP, film densitometry; conditions: […] Azine Enhancer, 5 mM Sodium Luminol
T1 sequence (P00433 31-338): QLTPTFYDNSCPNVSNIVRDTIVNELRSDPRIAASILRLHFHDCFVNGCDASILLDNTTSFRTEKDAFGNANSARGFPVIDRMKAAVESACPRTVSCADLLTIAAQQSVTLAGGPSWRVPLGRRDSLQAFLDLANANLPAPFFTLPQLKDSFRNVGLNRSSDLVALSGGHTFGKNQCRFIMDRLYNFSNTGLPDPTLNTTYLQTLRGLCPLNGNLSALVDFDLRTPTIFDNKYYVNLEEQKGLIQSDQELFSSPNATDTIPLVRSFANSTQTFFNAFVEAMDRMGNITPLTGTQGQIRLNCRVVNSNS

[1] = biological target: T2, Biotinylated horseradish peroxidase (B-HRP) (Armoracia rusticana, UniProt P00433); experiment: Microtiter plate luminometer assay of peroxidase chemiluminescence (RLU)
T2 sequence (P00433 31-338): T1 sequence (P00433 31-338)

[2] = […] Azine Enhancer, 5 mM Sodium Luminol
[3] = 25 pg of the B-HRP, enhancer concentrations as in row ([…] 1c; 52 μM 1c; 52 μM 1b; 13.5 μM 3)

## CC(CN1c2ccccc2Sc2ccccc21)C[N+](C)(C)C.[Cl-] (centres unmarked) [Azine Enhancer 1g]
B-HRP
  Net Relative Intensity at 15.6 pg B-HRP: 0
[1]; [2]
  Net RLU at 0.98 pg B-HRP: 0.00 RLU
  Net RLU at 3.9 pg B-HRP: 0.00 RLU
  Net RLU at 15.6 pg B-HRP: 0.00 RLU
  Net RLU at 62.5 pg B-HRP: 0.00 RLU
  Net RLU at 250 pg B-HRP: 0.35 RLU

## O=S(=O)([O-])CCCCN1c2ccccc2Sc2ccccc21.[Na+] [Azine Enhancer 1f]
B-HRP
  Net Relative Intensity at 15.6 pg B-HRP: 54.12
[1]; [2]
  Net RLU at 0.98 pg B-HRP: 1.30 RLU
  Net RLU at 3.9 pg B-HRP: 6.50 RLU
  Net RLU at 15.6 pg B-HRP: 33.80 RLU
  Net RLU at 62.5 pg B-HRP: 181.00 RLU
  Net RLU at 250 pg B-HRP: 899.10 RLU

## O=S(=O)([O-])CCCCN1c2ccccc2Sc2ccc(Cl)cc21.[Na+] [Azine Enhancer 1h]
B-HRP
  Net Relative Intensity at 15.6 pg B-HRP: 16.09
[1]; [2]
  Net RLU at 0.98 pg B-HRP: 0.08 RLU
  Net RLU at 3.9 pg B-HRP: 0.17 RLU
  Net RLU at 15.6 pg B-HRP: 0.19 RLU
  Net RLU at 62.5 pg B-HRP: 1.50 RLU
  Net RLU at 250 pg B-HRP: 99.20 RLU

## CN1c2ccccc2Sc2ccccc21 [Azine Enhancer 1b, N-Methylphenothiazine]
[1]
  RLU 1 minute: 0.06 RLU
  RLU 5 minutes: 0.13 RLU
  RLU 15 minutes: 0.32 RLU
  RLU 30 minutes: 0.76 RLU
  RLU 1 hour: 0.65 RLU
  RLU 2 hours: 0.04 RLU
  Relative Intensity 250 pg B-HRP: 16.30

## 2-chloro-10 (3 trimethyl amino propyl)-phenothiazonan bromide [Azine Enhancer 1d]
B-HRP
  Net Relative Intensity at 15.6 pg B-HRP: 0
[1]
  Net RLU at 0.98 pg B-HRP: 0.00 RLU
  Net RLU at 3.9 pg B-HRP: 0.00 RLU
  Net RLU at 15.6 pg B-HRP: 0.00 RLU
  Net RLU at 62.5 pg B-HRP: 0.00 RLU
  Net RLU at 250 pg B-HRP: 0.19 RLU

## O=C1C=CC(=Nc2ccc(O)cc2)C=C1 [Phenolic Enhancer 3, Phenolindophenol/indophenol]
[1]; [3]
  RLU 1 minute: 0.001 RLU
  RLU 5 minutes: 0.002 RLU
  RLU 15 minutes: 0.001 RLU
  RLU 30 minutes: 0.002 RLU
  RLU 1 hour: 0.002 RLU
  RLU 2 hours: 0.002 RLU
[1]; after 5 minutes, enhancer concentrations as in row ([…] 1c; 52 μM 1c; 52 μM 1b; 13.5 μM 3)
  Relative Intensity 250 pg B-HRP: 0.328

— patent US20020192736A1, “Assay of peroxidase activity” (Pierce Chemical Company, priority 2001, published 2002)
